Laboratory results reported in PMC8883701 (Genome Biology, 2022).

Chains of the proteins cited; added tags and fusions are not shown.
UniProt P27694, whole entry, chain 1 of 3: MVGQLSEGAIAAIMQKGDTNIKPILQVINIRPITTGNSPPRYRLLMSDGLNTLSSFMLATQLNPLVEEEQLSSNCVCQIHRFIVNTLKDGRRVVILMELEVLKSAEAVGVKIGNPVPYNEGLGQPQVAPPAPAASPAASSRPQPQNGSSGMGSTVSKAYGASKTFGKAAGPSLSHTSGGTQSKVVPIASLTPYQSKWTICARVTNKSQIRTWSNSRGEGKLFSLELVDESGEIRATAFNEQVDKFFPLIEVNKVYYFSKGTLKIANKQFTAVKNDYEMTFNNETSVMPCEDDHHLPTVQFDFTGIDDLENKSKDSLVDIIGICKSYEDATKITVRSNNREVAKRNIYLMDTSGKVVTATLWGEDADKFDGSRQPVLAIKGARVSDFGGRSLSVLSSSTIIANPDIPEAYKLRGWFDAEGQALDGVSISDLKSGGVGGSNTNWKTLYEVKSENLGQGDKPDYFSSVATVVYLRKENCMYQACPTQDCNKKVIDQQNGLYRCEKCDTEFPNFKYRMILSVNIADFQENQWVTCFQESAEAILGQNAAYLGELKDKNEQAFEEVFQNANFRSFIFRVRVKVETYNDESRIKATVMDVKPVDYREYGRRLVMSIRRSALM
recombinant RPA (RPA1, RPA2 and RPA3 co-purified), UniProt P15927, whole entry, chain 2 of 3: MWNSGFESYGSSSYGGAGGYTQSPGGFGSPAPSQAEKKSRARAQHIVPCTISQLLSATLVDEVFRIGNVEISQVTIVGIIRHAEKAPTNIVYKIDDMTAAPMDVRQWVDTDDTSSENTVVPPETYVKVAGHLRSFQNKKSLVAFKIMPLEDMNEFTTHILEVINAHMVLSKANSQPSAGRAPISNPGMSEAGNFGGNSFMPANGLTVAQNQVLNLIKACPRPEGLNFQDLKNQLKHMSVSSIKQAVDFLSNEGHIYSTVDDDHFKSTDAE
recombinant RPA (RPA1, RPA2 and RPA3 co-purified), UniProt P35244, whole entry, chain 3 of 3: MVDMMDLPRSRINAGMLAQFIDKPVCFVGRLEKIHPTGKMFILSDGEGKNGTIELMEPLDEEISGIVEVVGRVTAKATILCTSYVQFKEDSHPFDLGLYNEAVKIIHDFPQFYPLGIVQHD

Target: T1, recombinant RPA (RPA1, RPA2 and RPA3 co-purified) (UniProt P27694 1-616; P15927 1-270; P35244 1-121)
T1 construct: RPA1 subunit; RPA2 subunit; RPA3 subunit; source: bacteria cells, co-purified; copies: + +
Test: BLI; RPA immobilised on the sensor, various concentrations of recombinant LAP2α; global fitting; apparent KD
Conditions: both partners purified

Kd: 22.4 nM
B1: His-tagged LAP2α (LAP2α/wt) (natural protein, UniProt P42166 1-694, looked up)
chain: MPEFLEDPSVLTKDKLKSELVANNVTLPAGEQRKDVYVQLYLQHLTARNRPPLPAGTNSKGPPDFSSDEEREPTPVLGSGAAAAGRSRAAVGRKATKKTDKPRQEDKDDLDVTELTNEDLLDQLVKYGVNPGPIVGTTRKLYEKKLLKLREQGTESRSSTPLPTISSSAENTRQNGSNDSDRYSDNEEGKKKEHKKVKSTRDIVPFSELGTTPSGGGFFQGISFPEISTRPPLGSTELQAAKKVHTSKGDLPREPLVATNLPGRGQLQKLASERNLFISCKSSHDRCLEKSSSSSSQPEHSAMLVSTAASPSLIKETTTGYYKDIVENICGREKSGIQPLCPERSHISDQSPLSSKRKALEESESSQLISPPLAQAIRDYVNSLLVQGGVGSLPGTSNSMPPLDVENIQKRIDQSKFQETEFLSPPRKVPRLSEKSVEERDSGSFVAFQNIPGSELMSSFAKTVVSHSLTTLGLEVAKQSQHDKIDASELSFPFHESILKVIEEEWQQVDRQLPSLACKYPVSSREATQILSVPKVDDEILGFISEATPLGGIQAASTESCNQQLDLALCRAYEAAASALQIATHTAFVAKAMQADISQAAQILSSDPSRTHQALGILSKTYDAASYICEAAFDEVKMAAHTMGNATVGRRYLWLKDCKINLASKNKLASTPFKGGTLFGGEVCKVIKKRGNKH
notes: LAP2α, alpha splicing product of TMPO; also called recombinant LAP2α; source: insect cells, purified
